Our source for the ka values is US12497460B2, “Anti-MSR1 antibodies and methods of use thereof” (REGENERON PHARMACEUTICALS, INC., priority 2018, dated 2025).

The experiment concerns the target T1, His9-hMSR1 (human MSR1 extracellular domain) (Homo sapiens, UniProt P21757).
T1 construct: human MSR1 extracellular domain expressed with a N-terminal nonahistidine tag; His9 (nonahistidine) (N); purchased R&D Systems 2708-MS
T1 sequence (P21757 77-451 limits assumed): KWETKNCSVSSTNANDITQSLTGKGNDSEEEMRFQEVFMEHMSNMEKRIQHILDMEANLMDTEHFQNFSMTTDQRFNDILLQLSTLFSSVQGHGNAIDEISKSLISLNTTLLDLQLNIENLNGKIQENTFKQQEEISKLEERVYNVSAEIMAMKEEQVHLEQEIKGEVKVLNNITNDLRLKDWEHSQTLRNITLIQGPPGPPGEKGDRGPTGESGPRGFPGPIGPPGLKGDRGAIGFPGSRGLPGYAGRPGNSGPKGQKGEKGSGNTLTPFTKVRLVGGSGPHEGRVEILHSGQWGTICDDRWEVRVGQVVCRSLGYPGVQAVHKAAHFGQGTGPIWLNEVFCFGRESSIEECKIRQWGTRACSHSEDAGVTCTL
As to the kind of experiment: Biacore surface plasmon resonance binding kinetics of anti-MSR1 mAbs, antibody-capture format. To be noted: analyte His9-hMSR1, NB = no binding observed. As to the method: Binding affinities and kinetic constants of human anti-MSR1 antibodies for different MSR1 reagents were determined by real-time surface plasmon resonance (Biacore 4000). All binding studies were performed in 10 mM HEPES, 150 mM NaCl, 3 mM EDTA, and 0.05% v/v Surfactant Tween-20, pH 7.4 (HBS-ET) running buffer at 25° C. and 37° C.
The association rate (ka) and dissociation rate (kd) were determined by fitting the real-time binding sensorgrams to a 1:1 binding model with mass transport limitation using Scrubber 2.0c curve-fitting software. Binding dissociation equilibrium constant (KD) and dissociative half-life (t½) were calculated from the kinetic rates as: […]
On the technique in general: In SPR one partner is held on a chip, and binding of the other changes the refractive index at the surface.

B1: H1H27751P-N297Q: one of "Twelve anti-MSR1 antibodies"; "made with an N297Q single point mutation in human Fcγ portion" (antibody, V domains shown)
VH: EVQLVESGGGLVQPGGSLRLSCAASGFTFSNYAMHWVRQAPGKGLEYVSAISSNGGSTYYADSVKGRITISRDNSKNTLYLQMGSLRAEDMAVYYCARGRPYYYYFGMDVWGQGTTVTVSS
VL: DIVMTQTPVSSPVTLGQPASISCRSSQSLVHSDGNTYLSWFQQRPGQPPRLLIYKISNRFSGVPDRFSGSGAGTDFTLKISRVEAEDVGVYYCMQATQFPLNFGGGTKVEIKR
Turning to B1, the ka by setting is: (25° C.) 1.78e+06 M⁻¹ s⁻¹; (37° C.) 1.45e+06 M⁻¹ s⁻¹.
